## Membrane permeability of cyclic peptides

Data: CycPeptMPDB; original report Townsend et al. 2020, doi:10.26434/chemrxiv.13335941.v1.

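Lipid, pH, incubation time, direction and concentration are not recorded in the data file. The list need not hold all peptides of the study. Entries at the database's floor value (log10 P of -10) are not listed.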

PAMPA is the parallel artificial membrane permeability assay, which has no cells and reads passive diffusion.
Permeability is given as log10 of P in cm/s; higher (less negative) is more permeable.

structure (SMILES)	PAMPA (log10 cm/s)
CC(C)C[C@@H]1NC(=O)[C@@H](CC(C)C)NC(=O)[C@H](C)N(C)C(=O)[C@@H]2CCCN2C(=O)[C@H](Cc2ccccc2)NC(=O)CN(Cc2ccccc2)C(=O)[C@@H]2CCCN2C1=O	-6.29
CCCN1CC(=O)N(Cc2ccccc2)CC(=O)N(C)[C@H](CC(C)C)C(=O)N2CCC[C@@H]2C(=O)N(C)[C@@H](CC(C)C)C(=O)N[C@@H](Cc2ccccc2)C(=O)N2CCC[C@@H]2C1=O	-5.73
CC(C)C[C@@H]1NC(=O)[C@H](C)N(C)C(=O)[C@H]2CCCN2C(=O)[C@H](Cc2ccccc2)NC(=O)[C@H](CC(C)C)N(C)C(=O)[C@@H]2CCCN2C(=O)[C@@H](CC(C)C)N(C)C1=O	-5.19
CCCN1CC(=O)N(C)[C@H](CC(C)C)C(=O)N[C@H](CC(C)C)C(=O)N2CCC[C@H]2C(=O)N[C@H](CC(C)C)C(=O)N[C@@H](Cc2ccccc2)C(=O)N2CCC[C@@H]2C1=O	-6.41
CC(C)C[C@@H]1C(=O)N[C@@H](Cc2ccccc2)CC(=O)N2CCC[C@@H]2C(=O)N[C@H](CC(C)C)C(=O)N[C@@H](Cc2ccccc2)C(=O)N2CCC[C@H]2C(=O)N[C@@H](Cc2ccccc2)CC(=O)N1C	-5.69
CC(C)C[C@@H]1NC(=O)[C@H](C)N(C)C(=O)[C@@H]2CCCN2C(=O)[C@H](Cc2ccccc2)NC(=O)[C@@H](CC(C)C)N(C)C(=O)[C@H]2CCCN2C(=O)C[C@H](Cc2ccccc2)NC1=O	-5.66
CCCN1CC(=O)N[C@H](CC(C)C)C(=O)N[C@@H](CC(C)C)C(=O)N2CCC[C@@H]2C(=O)N(C)[C@@H](CC(C)C)C(=O)N[C@@H](Cc2ccccc2)C(=O)N2CCC[C@H]2C1=O	-5.07
CCCN1CC(=O)N[C@H](CC(C)C)C(=O)N[C@@H](CC(C)C)C(=O)N2CCC[C@H]2C(=O)N(C)[C@H](CC(C)C)C(=O)N[C@@H](Cc2ccccc2)C(=O)N2CCC[C@H]2C1=O	-5.79
CCCN1CC(=O)N(C)[C@H](CC(C)C)C(=O)N[C@@H](Cc2ccccc2)CC(=O)N2CCC[C@@H]2C(=O)N[C@@H](CC(C)C)C(=O)N[C@@H](Cc2ccccc2)C(=O)N2CCC[C@H]2C1=O	-6.69
CCCN1CC(=O)N[C@@H](CC(C)C)C(=O)N[C@H](CC(C)C)C(=O)N2CCC[C@@H]2C(=O)N(Cc2ccccc2)CC(=O)N[C@@H](Cc2ccccc2)C(=O)N2CCC[C@@H]2C1=O	-5.55
CC(C)C[C@@H]1NC(=O)[C@@H](CC(C)C)N(C)C(=O)[C@@H](C)NC(=O)[C@H](Cc2ccccc2)NC(=O)CN(Cc2ccccc2)C(=O)[C@H]2CCCN2C1=O	-5.18
CCCN1CC(=O)N(Cc2ccccc2)CC(=O)N[C@@H](CC(C)C)C(=O)N2CCC[C@@H]2C(=O)N(C)[C@H](CC(C)C)C(=O)N[C@@H](Cc2ccccc2)C(=O)N2CCC[C@@H]2C1=O	-5.23
CC(C)C[C@@H]1C(=O)N[C@@H](Cc2ccccc2)C(=O)N2CCC[C@H]2C(=O)N[C@@H](Cc2ccccc2)CC(=O)N[C@H](CC(C)C)C(=O)N(Cc2ccccc2)CC(=O)N2CCC[C@H]2C(=O)N1C	-6.05
CC(C)C[C@@H]1C(=O)N(C)[C@H](CC(C)C)C(=O)N2CCC[C@@H]2C(=O)N(C)[C@H](CC(C)C)C(=O)N[C@@H](Cc2ccccc2)C(=O)N2CCC[C@@H]2C(=O)N[C@@H](Cc2ccccc2)CC(=O)N1C	-5.47
CC(C)C[C@@H]1C(=O)N(C)[C@@H](CC(C)C)C(=O)N2CCC[C@@H]2C(=O)N(C)[C@H](CC(C)C)C(=O)N[C@@H](Cc2ccccc2)C(=O)N2CCC[C@@H]2C(=O)N(C)[C@H](C)C(=O)N1C	-5.57
CC(C)C[C@@H]1NC(=O)CN(Cc2ccccc2)C(=O)[C@H](C)N(C)C(=O)[C@H]2CCCN2C(=O)[C@H](Cc2ccccc2)NC(=O)[C@H](CC(C)C)N(C)C(=O)[C@@H]2CCCN2C1=O	-5.58
CCCN1CC(=O)N(C)[C@@H](CC(C)C)C(=O)N[C@@H](Cc2ccccc2)CC(=O)N2CCC[C@H]2C(=O)N[C@@H](CC(C)C)C(=O)N[C@@H](Cc2ccccc2)C(=O)N2CCC[C@H]2C1=O	-5.71

Again, the 3 entries with the lowest PAMPA:

structure (SMILES)	PAMPA (log10 cm/s)
CCCN1CC(=O)N(C)[C@H](CC(C)C)C(=O)N[C@@H](Cc2ccccc2)CC(=O)N2CCC[C@@H]2C(=O)N[C@@H](CC(C)C)C(=O)N[C@@H](Cc2ccccc2)C(=O)N2CCC[C@H]2C1=O	-6.69
CCCN1CC(=O)N(C)[C@H](CC(C)C)C(=O)N[C@H](CC(C)C)C(=O)N2CCC[C@H]2C(=O)N[C@H](CC(C)C)C(=O)N[C@@H](Cc2ccccc2)C(=O)N2CCC[C@@H]2C1=O	-6.41
CC(C)C[C@@H]1NC(=O)[C@@H](CC(C)C)NC(=O)[C@H](C)N(C)C(=O)[C@@H]2CCCN2C(=O)[C@H](Cc2ccccc2)NC(=O)CN(Cc2ccccc2)C(=O)[C@@H]2CCCN2C1=O	-6.29